Sfp PPTase inh: blocks B. subtilis Sfp PPTase activity. AID 1490. Q9F4F7. Biochemical Sfp PPTase activity, qHTS. hit rate 3.5% among 310,000. Potency, µM, for the others: max response, negative = inhibition, usual class: inhibitors; active = well fitted inhibition curve with a large enough effect; inconclusive = small, poorly fitted or top-dose-only effect, or another doubt; inactive = no such curve, though single readings can be large or run the other way;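 also: the enzyme is Sfp with the accession as filed and its product quenches rhodamine fluorescence; potency is read from the fitted curve at half-maximal effect; 0% = enzyme reaction without inhibitor and -100% = no enzyme wells; top concentration of the series not given in the record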
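Fluorescence-quenching assay: 15 nM Sfp-PPTase preincubated 15 min at room temperature with compound, then 5 uM rhodamine-CoA and 12.5 uM BHQ-2-labelled YbbR peptide added. Fluorescence (ex 525/em 598 nm) read at start and after 30 min; difference gives rate.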
G9a inh: blocks human histone lysine methyltransferase G9a. Q96KQ7. G9a H3K9 monomethylation, AlphaScreen, 2 h. Potency, µM (top dose mostly 102 µM), for inactives: at the top dose activity, negative = inhibition, most hits filed as inhibitors. 8.8% of 350,000 active; further: potency means the concentration at half of the fitted maximal effect; on the % scale 0 is the no-effect control and ±100 the full control effect; nearly all actives have a fitted effect of over 75% in size
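Using a bead-based AlphaScreen, monomethylated H3K9 product from 2 h room-temperature reactions (G9a 20 nM, peptide 500 nM, SAM 20 uM) was detected with 0.5 ug/mL rabbit anti-H3K9me1 antibody.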
miR-21 FLuc: miR-21 reporter, rising signal | HeLa miR-21 FLuc reporter, luciferase, 48 h | Potency, µM (highest dose often 38.3 µM), for inactives: at the top dose reporter change, positive = more light | 340,000 tested, under 10 active | AID 2288; active = well fitted rising curve with a large enough effect; inconclusive = small, poorly fitted or top-dose-only effect; inactive = no such curve, though single readings can be large or run the other way;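 further: % of control where 0% means no effect; miR-21 action dims this reporter so a rising signal means less miR-21 action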
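Luminescence from a firefly luciferase reporter carrying a miR-21 binding site downstream, stably expressed under a CMV promoter in HeLa cells that make miR-21 endogenously, reports miRNA modulation after 48 h compound exposure up to approximately 40uM final.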
Lamin A splicing: modulators of lamin A splicing. Potency, µM (titrated, usually from 46.1 µM), without a hit: at the highest dose ratio change, negative = inhibition, actives largely listed as inhibitors. HeLa LMNA splicing GFP/RFP minigene ratio, 48 h. AID 1487. 0.01% of 200,000 active; active means well fitted inhibition curve with a large enough effect in the signal ratio, with a control signal flat, not every such curve was filed as active; inconclusive means small, poorly fitted or top-dose-only effect, or effect the other way, or a change in a side signal; the % refers to the signal ratio; further: potency means the concentration at half of the fitted maximal effect; on the % scale 0 is the no-effect control and ±100 the full control effect
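S3 HeLa stable clones carrying a lamin A-EGFP splicing minigene plus DsRed2 were seeded at 600 cells/well in Opti-MEM with 2% FBS, pin-dosed and incubated 48 h at 37°C. Acumen cytometry (488 nm) gave the GFP/RFP total-intensity ratio.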
ALDH1A1 block: ALDH1A1 (human) enzyme inhibition. P00352. Purified ALDH1A1, NADH fluorescence, propionaldehyde substrate. Potency, µM (series often up to 75.3 µM), without a hit: top-dose activity, negative = inhibition, hits mostly inhibitors. 7.3% of 220,000 active. AID 1030; active means well fitted inhibition curve with a large enough effect, not every such curve was filed as active; inconclusive means small, poorly fitted or top-dose-only effect, or another doubt; inactive means no such curve, though single readings can be large or run the other way;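 further: potency means the concentration at half of the fitted maximal effect; plate controls were no enzyme wells and a reference inhibitor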
KDM4E inh: JMJD2E (human) inhibition; AID 2147; Potency, µM (series often up to 57.1 µM), for the others: at the top dose activity change, negative = inhibition, hits mostly inhibitors; JMJD2E catalytic domain, FDH-coupled NADH fluorescence (FDH is formaldehyde dehydrogenase); 1.6% of 230,000 active; B2RXH2; active means well fitted inhibition curve with a large enough effect, not every such curve was filed as active; inconclusive means small, poorly fitted or top-dose-only effect, or another doubt; inactive means no such curve, though single readings can be large or run the other way;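 further: potency means the concentration at half of the fitted maximal effect; 0% = wells with enzyme and -100% = buffer wells without enzyme; nearly all actives have a fitted effect of over 50% in size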
Active calls of the source: *; ? = inconclusive; nt = no result; [ ] = dose if it differs, or a comment. This is a sample that favours compounds with a hit; in the whole collection about 13% have one here. Unless noted, the call rests on the fitted dose curve; in most records, active means well fitted curve in the direction sought with a large enough effect; inconclusive means small, poorly fitted or top-dose-only effect, or another doubt; inactive means no such curve, though single readings can be large; an effect the other way counts as inactive or inconclusive.

[1] Cc1sc2nc(C3CC3)nc(SCC(=O)N3c4ccccc4CC3C)c2c1C (stereo not given)
[2] Cc1ccc(C(=O)Oc2ccc(/C=N/NC(N)=O)cc2)cc1
[3] COc1cc(/C=N/NC(N)=O)ccc1OC(=O)c1ccc(C)cc1
[4] O=C(N/N=C/c1ccc(OC(=O)c2ccccc2)cc1)c1cccnc1
[5] Cn1c(=O)c2ccccc2n2c(CCC(=O)N3CCN(c4cccc(Cl)c4)CC3)nnc12

screen / no.	1	2	3	4	5
Sfp PPTase inh	1.8%	4.7%	17.4%	3.3%	nt
G9a inh	-22.2%	28.2µM*	-6.4%[59 µM]	20µM*	2.1%[59 µM]
miR-21 FLuc	-3.7%	-1.4%	-3.3%	-3.1%	-3.1%
Lamin A splicing	?	nt	2.8%	nt	nt
ALDH1A1 block	?	1.2%	10.8%	nt	nt
KDM4E inh	5.1%	-6.1%	5.5%	nt	nt

At a glance, 2 of the compounds above:
[4] O=C(N/N=C/c1ccc(OC(=O)c2ccccc2)cc1)c1cccnc1
[5] Cn1c(=O)c2ccccc2n2c(CCC(=O)N3CCN(c4cccc(Cl)c4)CC3)nnc12

screen / no.	4	5
Sfp PPTase inh	3.3%	nt
G9a inh	20µM*	2.1%[59 µM]
miR-21 FLuc	-3.1%	-3.1%
Lamin A splicing	nt	nt
ALDH1A1 block	nt	nt
KDM4E inh	nt	nt

Remaining list, next part
[6] CN(CC(=O)Nc1ccccc1C(=O)NC1CC1)Cc1ccco1
[7] Nc1nc(N2CCCCC2)nc2ccccc12
[8] c1ccc2c(N3CCCCC3)nc(N3CCCC3)nc2c1
[9] COc1ccc(-n2c(SCC(=O)NCc3ccccc3)nc3n[nH]c(C)c3c2=N)cc1
[10] O=C1/C(=C/c2cccs2)COc2ccccc21

screen / no.	6	7	8	9	10
Sfp PPTase inh	nt	4.1%	-3.8%	nt	13.2%
G9a inh	23.0%[2.33 µM]	50.1µM*	-6.3%[12.7 µM]	10.2%[59 µM]	5.8%
miR-21 FLuc	nt	-21.0%	22.1%	0.7%	-37.5%
Lamin A splicing	nt	-1.6%	-11.4%	7.0%[46 µM]	-8.7%
ALDH1A1 block	nt	?	-4.6%	nt	-7.8%
KDM4E inh	nt	?	-13.5%	nt	3.3%

[11] CN(C)/N=C/C=C1\CCC/C(=C/c2cccs2)C1=O
[12] CN(C)/N=C/C=C1\CC/C(=C\c2ccc(Br)cc2)C1=O
[13] NCCNS(=O)(=O)c1cccc2cnccc12
[14] Cc1ccc(C(=O)N2CCN(S(=O)(=O)c3ccc(C)c([N+](=O)[O-])c3)C2)cc1
[15] CN(C(=O)CN1C(=O)S/C(=C\c2ccc(Cl)cc2)C1=O)C1CCS(=O)(=O)C1 (stereo not given)

screen / no.	11	12	13	14	15
Sfp PPTase inh	20.2%	-7.6%	-6.5%	19.6%	-1.2%
G9a inh	-35.4%	50.1µM*	46.0%[12.7 µM]	-8.4%	2.9%
miR-21 FLuc	-56.6%	-4.9%	nt	-4.4%	3.5%
Lamin A splicing	nt	17.5%	?	6.4%[46 µM]	nt
ALDH1A1 block	25.1µM*	-4.3%	-6.1%	-8.0%	nt
KDM4E inh	8.4%	9.3%	-4.9%	2.8%	nt

[16] O=C(CN1C(=O)c2cccnc2Oc2ccc(Cl)cc21)Nc1ccccc1F
[17] Cn1c(=O)c(-c2ccc(Cl)cc2)nc2cnc(OCc3ccccc3)nc21
[18] CCOC(=O)N1CCC(NCCNC(=O)c2ccco2)CC1
[19] CCOC(=O)N1CCC(NCCNC(=O)c2ccc(F)c(F)c2)CC1
[20] CCOC(=O)N1CCC(NCCNC(=O)c2ccc(Cl)cc2)CC1

screen / no.	16	17	18	19	20
Sfp PPTase inh	4.9%	20.5%	-29.5%	nt	-14.0%
G9a inh	nt	7.8%[0.501 µM]	3.16µM*	3.1%[0.501 µM]	6.31µM*
miR-21 FLuc	-9.2%	nt	-3.5%	nt	-10.3%
Lamin A splicing	nt	?	nt	nt	10.9%
ALDH1A1 block	nt	?	?	nt	?
KDM4E inh	nt	nt	-9.3%	nt	?

[21] O=C(/C=C/c1cn(CC(O)CN2CCCCC2)c2ccccc12)c1cccs1 (stereo not given)
[22] CCOc1ccc(OCC)c(NC(=O)c2cc(CN3CCOCC3)on2)c1
[23] Clc1ccc(OCCSc2nnnn2C2CCCCC2)cc1
[24] CCOc1ccc(OCCSc2nnnn2C2CCCCC2)cc1
[25] c1ccc(-n2nnnc2SCCCSc2nc3ccccc3s2)cc1

screen / no.	21	22	23	24	25
Sfp PPTase inh	-21.9%	nt	-15.2%	-6.4%	-8.7%
G9a inh	-19.4%[59 µM]	-0.4%[59 µM]	100.0%[59 µM]	90.4%[59 µM]	42.1%[59 µM]
miR-21 FLuc	-6.4%	-5.0%	-3.4%	-11.5%	0.1%
Lamin A splicing	?	?	?	?	6.8%
ALDH1A1 block	14.1µM*	nt	?	15.8µM*	1.26µM*
KDM4E inh	-9.7%	nt	4.7%	7.1%	-4.6%

2 of the compounds above, as labelled records.
#22 CCOc1ccc(OCC)c(NC(=O)c2cc(CN3CCOCC3)on2)c1
  Sfp PPTase inh = nt | G9a inh = -0.4%[59 µM] | miR-21 FLuc = -5.0% | Lamin A splicing = ? | ALDH1A1 block = nt | KDM4E inh = nt
#23 Clc1ccc(OCCSc2nnnn2C2CCCCC2)cc1
  Sfp PPTase inh = -15.2% | G9a inh = 100.0%[59 µM] | miR-21 FLuc = -3.4% | Lamin A splicing = ? | ALDH1A1 block = ? | KDM4E inh = 4.7%

Other entries follow.
[26] Fc1ccccc1OCCSc1nnnn1-c1ccccc1
[27] c1ccc(OCCSc2nnnn2-c2ccccc2)cc1
[28] c1cc2c3c(c1)c1c(n3CCNC2)CCCC1
[29] COc1cccc(NC(=O)CSc2nn3c(=O)c(C)nnc3s2)c1
[30] CCn1nc(C)c(CN2CCC(Oc3ccc(C(=O)N4CCCC4)cc3)CC2)c1C
[31] CCSc1nnnn1-c1ccccc1
[32] CCOc1ccc(OCCSc2nnnn2-c2ccccc2)cc1

screen / no.	26	27	28	29	30	31	32
Sfp PPTase inh	-3.2%	-28.7%	?	18.3%	24.8%	-3.6%	9.6%
G9a inh	70.7%[59 µM]	62.5%[59 µM]	nt	83.5%	-5.8%	-26.8%	136.8%
miR-21 FLuc	-51.5%	-48.9%	nt	1.0%	9.6%	5.2%	-11.6%
Lamin A splicing	?	2.8%	nt	nt	nt	10.1%	?
ALDH1A1 block	1.89µM*	22.4µM*	5.0%	nt	nt	?	14.1µM*
KDM4E inh	-0.3%	0.9%	?	nt	nt	3.6%	0.5%
